Data from patent US12616750B2, “Combination therapy utilizing DNA alkylating agents and ATR inhibitors” (Merck Patent GmbH, priority 2018, dated 2026).

Experiments:
Format in all cases: cell-based
A549 cells = experiment: Cytotoxicity (cell viability); details: Homo sapiens; A549 (EGFR +, MET +), Table 10
Method: Evaluation was performed using GraphPad Prism version 6.05.
(§1) Compounds were added using Tecan D300e liquid. […] Synergy scores were calculated using LOEWE synergy model.

HCC-1954 cells = experiment: Dose-matrix combination assay (synergy score, Loewe model)
Method: as §1
The screening of synergistic drug combinations can be accomplished by performing a dose-matrix assay. Therefore, two drugs are serial diluted and mixed at every dose level, yielding a dose-matrix. The drug combination can be additive if the effects of the combination are identical to the added effects of the single agents. However, the effects of the combination might also be stronger than the activity of the single agents. This scenario is termed synergy, whereas weaker combination effects compared to the single agents are termed antagonism. […]
The screening was conducted by serial diluting the duocarmycin derivative DUBA (10) and the DDR inhibitors. […] The cell viability was measured after 6 d of treatment using the CellTiter-Glo assay kit. […] The quantification of the combination effects, however, was performed by calculating synergy scores. […]
The scattering of S was determined in a sham control experiment to define a cutoff for classifying a combination as truly synergistic or antagonistic. Thus seven different compounds were combined with itself on four different cell lines and the three-σ confidence interval was calculated around the mean of the measurement. […]

NCI-N87 cells = experiment: as above
Method: as §1
The screening of synergistic drug combinations can be accomplished by performing a dose-matrix assay. Therefore, two drugs are serial diluted and mixed at every dose level, yielding a dose-matrix. The drug combination can be additive if the effects of the combination are identical to the added effects of the single agents. However, the effects of the combination might also be stronger than the activity of the single agents. This scenario is termed synergy, whereas weaker combination effects compared to the single agents are termed antagonism. A dose-matrix assay is depicted schematically in FIG. 2 which illustrates the outcomes of a dose-matrix assay: additivity, antagonism and synergy.

Structure (SMILES) | IC50 (A549 cells) | Synergy score S (HCC-1954 cells) | Synergy score S (NCI-N87 cells)
COC(=O)c1cc2c3c(cc(O)c2[nH]1)N(C(=O)c1cc2cc(OC)c(OC)c(OC)c2[nH]1)C[C@H]3CCl [compound 13] | 0.33 ± 0.07 nM |  | 
C[C@@H]1COCCN1c1cc(-c2ccnn2C)c2ccnc(-c3ccn[nH]3)c2n1 [BAY1895344] |  | 13.1±1.0 and 12.8±0.5 | 7.6 ± 0.4 and 7.0 ± 0.2

Several values for one entry are separate records, joined by “and”; a condition that tells them apart may be missing. Equal entries are not always repeated.
